What was measured:
[1] = Drug release studies (stability of drug-carrier linkage); format: in vitro ADME
Method: The stability of the drug-carrier linkage was investigated by incubating cell targeting complexes at 37° C. under several conditions, e.g. buffers, buffers spiked with drug releasing substances or biological media. Typically, released drug was analyzed by HPLC and expressed as percentage of the total amount of conjugated drug/targeting complex.

[2] = test system: activated hepatic stellate cells (HSC); assay: Immunohistochemical staining of fibrosis markers in HSC after 24 h incubation; format: cell-based; details: for morphology of the stellate cells: conjugates 1 mg/ml
Method: The pharmacological effects of the conjugates were tested on different cultured cell types, e.g. activated hepatic stellate cells (HSC), kidney tubular cells (HK-2 cells) or human umbilical cord endothelial cells (HUVEC). Typically, cells were incubated for 24 h at 37° C. with the conjugates. Subsequently, the cells were subjected to analyses related to pharmacological activity of the coupled drug (gene expression analysis, immunohistochemcial evaluation of effect markers), or assays related to potential cytotoxicity of the complexes (cell viability assays, apoptosis assays).
FIG. 5. Effects of PTX-cisULS-M6PHSA on fibrosis markers collagen I and α-smooth muscle actin. HSC were incubated with PTX-cisULS-HSA, PTX-cisULS-M6PHSA (both at 1 mg/ml, equivalent to 100 μM PTX,) or 1 mM non-targeted PTX. Cells were stained for collagen type I or α-smooth muscle actin and counterstained with hematoxillin. Panel A,B) controls; panel C,D) PTX-cisULS-HSA; panel E,F) PTX-cisULS-M6PHSA; panel G,H) non-targeted PTX. Magnification 10×. One of the hallmarks of liver fibrosis is the induced expression and production of a-smooth muscle actin (aSMA) and collagen type 1 by activated HSC. These proteins were therefore selected as read-out parameters of the antifibrotic effects of the targeted PTX. […] Especially after staining of the abundantly present aSMA, the changes in the structure of the cells became clearly visible (panel F). HSC reacted to the treatment of PTX-cisULS-M6PHSA with a loss of cytoplasmic volume, rounded cell shape and detachment of the cells from the surface of the plates. These effects were not observed after incubation with equivalent concentrations of PTX-HSA (panel C,D).

[3] = test system: M6P/IGFII receptor expressing NIH/3T3 fibroblasts; assay: Binding of PTX-cisULS-M6PHSA to fibroblasts; details: for binding by anti-HSA immunodetection: 1 mg/ml, 4 h at 37°
[4] = Organ distribution of PTX-cisULS-M6PHSA in BDL rats; details: BDL3 rats
[5] = test system: culture activated HSC or liver slices from fibrotic rat livers; assay: Gene expression of fibrotic markers by real-time quantitative RT-PCR; format: cell-based; details: PTKI 10 μM or corresponding M6PHSA 0.1 mg/ml
Method: FIG. 6. Effects of PTKI-cisULS-M6PHSA on culture activated HSC (panel A) or liver slices from fibrotic rat livers (bileduct ligated rats, 3 weeks after ligation; panel B). Concentrations denote the amount of PTKI (10 μM) or the corresponding amount of M6PHSA carrier (0.1 mg/ml). Gene expression levels were normalized to the expression of GAPDH and subsequently normalized to the relative expression of control cells or slices.
The activity of PTKI and the cell targeting complex made thereof was studied by determination of gene-expression levels of fibrotic markers, which were analyzed by real-time quantitative RT-PCR.

[6] = test system: hepatic fibrosis in BDL rats; assay: Antifibrotic effect of losartan-cisULS-M6PHSA in BDL model of liver fibrosis; format: in vivo; details: four daily doses
[7] = test system: IL8 gene expression in HUVEC treated with TNF; assay: IL8 gene expression in TNF-treated HUVEC; format: cell-based, human; details: 24 h preincubation
[8] = test system: endothelial cells (HUVEC); assay: Binding of 89Zr-radiolabeled RGD-equipped complex to endothelial cells; parameters: species or system human; details: for displacement of binding of RGDPEG-SB202190-cisULS-HSA: 4° C. for 4 h
Method: The interaction of cell targeting complexes with target cells was investigated in cultured target cells. Typically, in vitro targeting studies were performed by incubating target cells with the complexes, at either 4° C. or 37° C. Binding and/or internalization of the complexes by target cells was detected by either immunohistochemical staining for the complex (e.g. anti-HSA or anti-LZM staining) or by quantification of a radioactive reporter group that had been introduced in the complex (e.g. ^125I). Representative examples of targeting studies are depicted in FIGS. 15-17.
Binding of RGD-equipped complexes to endothelial cells was studied using ^89Zr-radiolabeled compounds.

[9] = rat, in vivo
Method: The extraction was performed by adding 3 ml of methyl butyl ether to 200 μl of liver homogenate and vortexing for 5 min. Layers were separated by centrifugation at 900×g for 5 min and the aqueous layer was frozen in liquid nitrogen. The upper organic layer was transferred to another borosilicate glass tube and evaporated completely at 60° C. The extraction procedure was repeated twice and the total residue was reconstituted in 200 μl of mobile phase. Chromatography was carried out using a C18 (C18, 5 μm, 4.6×150 mm) reversed-phase column (Surefire, Waters Inc., Milford, Mass., USA) at 40° C. with an isocratic mobile phase consisting of acetonitrile-water-trifluoroacetic acid (30:70:0.1, v/v/v; pH 2.0).

[10] = test system: hepatic fibrosis in CCl4 rats; assay: Antifibrotic effect of losartan-cisULS-M6PHSA in CCl4 inhalation model; format: in vivo
[11] = rat, in vivo; remark: listed apart in the source
[12] = conjugates 1 mg/ml (100 μM PTX), non-targeted PTX 1 mM

Substance: PTX-cisULS-M6PHSA: PTX conjugated via cisULS to M6PHSA, 5-8 drug molecules per M6PHSA
- Release of PTX from conjugate ([1]; 24 h at 37° C., environment that resembles intracellular conditions): drug was released in an environment that resembles intracellular conditions
- Drug release profile ([1]; incubation at 37° C. in serum/PBS 1:1): only slowly released drug in serum
- morphology of the stellate cells [2]: pronounced changes in the morphology of the stellate cells
- aSMA staining intensity [2, 12]: not affected
- collagen type I staining [2, 12]: affected the collagen type I expression after 24 h of incubation considerably
- binding by anti-HSA immunodetection [3]: demonstrated binding
- binding of 125I-radiolabeled complex to cells ([3]; tracer dose, 4 h at 37° C.): bound to the cells
- cellular localization in liver (anti-HSA / anti-desmin) ([4]; 2 mg/kg): bound specifically to HSC
- accumulation in other organs ([4]; i.v. tracer dose, 10 minutes): No accumulation in other organs was observed
- distribution to the fibrotic liver ([4]; i.v. tracer dose, 10 minutes): rapid distribution

Substance: M6PHSA: carrier protein mannose-6-phosphate modified human serum albumin [reference compound]
- gene-expression levels of fibrotic markers [5]: did not affect the investigated genes
- displacement of radiolabeled PTX-cisULS-M6PHSA binding ([3]; excess of unlabeled competitor): binding could be displaced by excess of unlabeled M6PHSA
- hepatic fibrosis, Sirius Red staining [6]: Severe bridging
- infiltration by CD43-positive cells [6]: intense infiltration by CD43-positive cells
- αSMA-positive cells in liver [6]: marked accumulation of αSMA-positive cells

Substance: SB202190-cisULS-RGDPEG-HSA: SB202190-cisULS-HSA modified with PEG and RGD-peptide groups
- IL8 gene expression [7]: inhibition of this gene although to a lesser extent
- accumulation of the complex in cells ([8]; 37° C.): increased in time

Substance: losartan-cisULS-M6PHSA: losartan conjugated via cisULS to M6PHSA, approximately 7 losartan per protein
- co-localization in liver (anti-HSA and anti-desmin) [9]: co-localized with stellate cells
- liver / HSC distribution [9]: preferential liver distribution
- anti-HSA immunostaining in liver ([9]; iv, 3.3 mg/kg/day): prominently detected in the liver
- anti-HSA immunostaining in lung, spleen, heart, kidney ([9]; iv, 3.3 mg/kg/day): not detected
- hepatic fibrosis, Sirius Red staining [6]: fewer areas with collagen accumulation
- infiltration by CD43-positive cells [6]: reduced the number of CD43 infiltrating leukocytes
- αSMA-positive cells in liver [6]: marked reduction in αSMA-positive cells
- αSMA-positive cells in liver ([10]; CCl4 animals): less accumulation of αSMA-positive cells
- deposition of collagen in the liver, Sirius Red staining ([10]; CCl4 rats): markedly reduced
- anti-HSA staining in other organs [11]: negative

Substance: PTX-HSA
- morphology of the stellate cells [2]: not observed
- collagen type I staining [2, 12]: not observed
- binding by anti-HSA immunodetection [3]: did not bind to the cells

Substance: RGD-PEG-HSA: HSA with RGD peptide attached via VNS-PEG-NHS linker; carrier without drug
- IL8 gene expression [7]: did not reduce IL8 gene expression
- displacement of binding of RGDPEG-SB202190-cisULS-HSA [8]: could be displaced

Substance: SB202190-cisULS-HSA: SB202190-cisULS coupled to HSA, 5-8 drug molecules per HSA
- displacement of binding of RGDPEG-SB202190-cisULS-HSA [8]: did not affect the interaction between complex and target cells

Source: patent US20110104103A1, “Method of conjugating therapeutic compounds to cell targeting devices via metal complexes” (KREATECH BIOTECHNOLOGY B.V., priority 2005, published 2011)
